Patent publication US20030108957A1

Target: E. coli DnaK aa588-615 (E. coli)
Experiment: fluorescence polarization, fluorescein-labeled pyrrhocoricin halves

Row | Binder | millipolarization unit increase going from 32 µM to 160 µM (millipolarization unit)
1 | PTPPRPIYNRN (modifications not checked) [fluorescein-labeled Pyrr10-20] | 30
2 | VDKGSYLPR (modifications not checked) [fluorescein-labeled Pyrr1-9] | 30
